Assay outcomes (PubChem)
A selection: hits, their analogues and other compounds. The true share with any hit is near 0.62%.
PINK1 modulator: changes PINK1 expression; Potency, µM (highest dose often 76.6 µM), without a hit: at the top dose activation (PINK1 increase), most hits filed as activators; PINK1 immunofluorescence, high-content cytometry, 24 h; 410,000 tested, 0.2% active; AID 624263; active means well fitted activation curve with a large enough effect; inconclusive means small, poorly fitted or top-dose-only effect; cell line not stated here; further: potency means the concentration at half of the fitted maximal effect; % of control where 0% means no effect; nearly all actives have a fitted effect of over 65% in size
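Compound titrations (5 concentrations, 24 h) on a stable cell line; DMSO and CCCP controls. Endpoint: fixed-cell PINK1 immunofluorescence with mitochondrial, cell and nuclear markers, scanned by microplate cytometer.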
miR-21 reporter: miR-21 reporter, rising signal | AID 2288 | HeLa miR-21 FLuc reporter, luciferase, 48 h | 340,000 tested, under 10 active | Potency, µM (doses to about 38.3 µM), for inactives: at the top dose reporter change, positive = more light; active = well fitted rising curve with a large enough effect; inconclusive = small, poorly fitted or top-dose-only effect; inactive = no such curve, though single readings can be large or run the other way;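 note: % of control where 0% means no effect; miR-21 action dims this reporter so a rising signal means less miR-21 action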
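Compounds were titrated across several concentrations (up to approximately 40 uM) and incubated 48 hours with HeLa miR-21-FLuc reporter cells (miR-21 target sequence downstream of FLuc, endogenous miR-21). Readout was firefly luciferase luminescence after lytic detection reagent.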
IL-2 act: IL-2 activation; activation, % (series mostly up to about 46 µM); 360,000 tested, 0.065% active; IL-2 activation reporter assay, cell-based qHTS; stimulated with anti-CD3/CD4/CD28 beads; in transgenic mouse T cells; AID 652025; in the data active means activation above about 50%; inconclusive means mostly about 30% to 49%; further: 0% is about no effect
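Unstimulated transgenic mouse T cells; 60-min compound exposure; bead-based TCR/CD4/CD28 stimulation; 18 h culture, 37 degrees C; dual fluorescence (EGFP, DsRed) plate cytometry.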
uPA generation: cell surface uPA generation inhibition; cell surface uPA generation assay, qHTS; 330,000 tested, 0.31% active; Potency, µM (series often up to 38.3 µM), inactives show at the top dose activity change, negative = inhibition, usual class: inhibitors; active means well fitted inhibition curve with a large enough effect; inconclusive means small, poorly fitted or top-dose-only effect; inactive means no such curve, though single readings can be large or run the other way; tested in mouse RAW 264.7 cells; further: potency means the concentration at half of the fitted maximal effect; on the % scale 0 is the no-effect control and ±100 the full control effect; nearly all actives have a fitted effect of over 55% in size
p53 reactivation: mutant p53 re-activation in reporter cells. H1299 p53-A138V BP100-luciferase reporter, luminescence, 24 h. Potency, µM (highest dose often 92.2 µM), without a hit: at the top dose activity change, positive = activation, usual class: activators. 320,000 tested, 0.063% active. AID 504706; further: potency means the concentration at half of the fitted maximal effect; % of control where 0% means no effect; nearly all actives have a fitted effect of over 45% in size
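p53-null H1299 cells stably carrying temperature-sensitive p53-A138V and a BP100-luciferase reporter were pinned with compounds (4-point, 1:5 series) and held 24 hrs at 37 deg C. Luminescence was read 10 min after detection reagent.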
Epigenetic reg: epigenetic control regulation, reporter derepression. murine LDR cells, GFP reporter derepression, 30 h. Potency, µM (titrated, usually from 53.9 µM), for the others: top-dose GFP activation, most hits filed as activators. 280,000 tested, 0.2% active; further: potency means the concentration at half of the fitted maximal effect; % of control where 0% means no effect; nearly all actives have a fitted effect of over 60% in size
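Reporter derepression read as number of fluorescent GFP-positive objects, 20-120 um in size, counted by laser-scanning cytometer. Mouse LDR line with an epigenetically silenced CMV-GFP locus; compound incubation 30 h, 37 C.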
Numbers without * were called inactive; [ ] = remark or other dose. Unless noted, the call rests on the fitted dose curve; in most records, active means well fitted curve in the direction sought with a large enough effect; inconclusive means small, poorly fitted or top-dose-only effect, or another doubt; inactive means no such curve, though single readings can be large; an effect the other way counts as inactive or inconclusive.

How did OC1(c2cccnc2)CCN(Cc2ccc3c(c2)CN(Cc2ccc(F)c(F)c2)CCO3)CC1 do in these assays?
PINK1 modulator: -1%

What do the screens show for `COc1cc([N+](=O)[O-])cc2sc(NC(C)=O)nc12`?
PINK1 modulator: 0%; miR-21 reporter: -4%; IL-2 act: 0; uPA generation: 10µM*; p53 reactivation: 0%; Epigenetic reg: 1%

How did O=c1c2ccccc2sc2ccc(C#CC3(O)CCCCC3)cc12 do in these assays?
PINK1 modulator: 7%; IL-2 act: 0; uPA generation: 2.5µM*

Results for O=c1c2ccccc2oc2cc(C#CC3(O)CCCCC3)ccc12 ?
PINK1 modulator: 2%; IL-2 act: -1; uPA generation: 4.5µM*

How did COc1cccc2oc3cc(C#CC4(O)CCCCC4)ccc3c(=O)c12 do in these assays?
PINK1 modulator: 11%; miR-21 reporter: -6%; IL-2 act: 0; uPA generation: 7.1µM*; p53 reactivation: 19%

How did COc1cccc2sc3ccc(C#CC4(O)CCCCC4)cc3c(=O)c12 do in these assays?
PINK1 modulator: 9%; miR-21 reporter: -28%; IL-2 act: 0; uPA generation: inconclusive; p53 reactivation: inconclusive

What do the screens show for `CCC1CCCCN1CCCNC(=O)C1CCN(Cc2nc(-c3ccc(Cl)cc3)oc2C)CC1` (stereo not drawn)?
PINK1 modulator: -2%; miR-21 reporter: 25%; IL-2 act: -1; uPA generation: 10µM*; p53 reactivation: -4%

Results for O=C([C@@H]1C[C@@H](Sc2nc3ccccc3[nH]2)CN1Cc1ccc(Cl)cc1)N1CCN(c2ccccc2F)CC1 ?
PINK1 modulator: 1%

Results for CC1=C/C(=N\NC(=S)NCc2ccccc2)CC1 ?
PINK1 modulator: 0%; miR-21 reporter: -25%; IL-2 act: -1; uPA generation: 0%; p53 reactivation: -1%; Epigenetic reg: 13µM*

Results for CCN1CCN(c2ccc(S(=O)(=O)N3CCOCC3)cc2NC(=O)C2CCC(C(C)(C)C)CC2)CC1 (stereo not drawn) ?
PINK1 modulator: 1%; IL-2 act: 3; uPA generation: 4.5µM*

Results for O=C(Cn1nnc(-c2ccc(N3CCOCC3)cc2)n1)OC1CCCCC1 ?
PINK1 modulator: 5%; miR-21 reporter: -3%; IL-2 act: 0; uPA generation: 1%; p53 reactivation: 29%; Epigenetic reg: -1%

How did O=C(Cn1nnc(-c2ccc(N3CCOCC3)cc2)n1)N1CCOCC1 do in these assays?
PINK1 modulator: 0%; miR-21 reporter: -27%; IL-2 act: 1; uPA generation: 4.5µM*; p53 reactivation: 8%; Epigenetic reg: 1%

What do the screens show for `O=C(Nc1cccc(-c2nc3ncccc3o2)c1)c1sc2cc(Cl)ccc2c1Cl`?
PINK1 modulator: 10µM*; miR-21 reporter: -11%; IL-2 act: 0; uPA generation: 8%; p53 reactivation: inconclusive; Epigenetic reg: 1%

How did Cc1ccc(NC(=S)Nc2ccc(C(C)C)cc2)cc1S(=O)(=O)N1CCCCCC1 do in these assays?
PINK1 modulator: 11µM*; miR-21 reporter: 29%; IL-2 act: -1; uPA generation: 4%; p53 reactivation: 18%; Epigenetic reg: 1%

How did COc1ccc(NC(=S)Nc2ccc(C)c(S(=O)(=O)N3CCCCC3)c2)cc1 do in these assays?
miR-21 reporter: 18%; p53 reactivation: 7%; Epigenetic reg: -1%

How did CC(=O)N1CCN(c2nc3cc(C)ccc3cc2CN(C(=O)c2cccc3ccccc23)C2CC2)CC1 do in these assays?
PINK1 modulator: 0%

What do the screens show for `COCc1c(C(=O)N2CCN(c3ccccc3O)CC2)cnn1-c1nccc(-c2cccs2)n1`?
PINK1 modulator: 1%

How did CC(C)(C)Nc1nc2cc([N+](=O)[O-])ccc2o1 do in these assays?
PINK1 modulator: 6%; miR-21 reporter: -12%; IL-2 act: 0; uPA generation: 15%; p53 reactivation: 8%; Epigenetic reg: -1%

How did CC(C)(C)c1nc2cc(Cl)c([N+](=O)[O-])cc2o1 do in these assays?
PINK1 modulator: 14µM*; miR-21 reporter: -1%; IL-2 act: 0; uPA generation: 0%; p53 reactivation: 3%; Epigenetic reg: -5%

What do the screens show for `CCOC(=O)c1c(-c2ccccc2)csc1NC(=O)/C(C#N)=C/c1ccc(OC)c(OC)c1`?
PINK1 modulator: 10%; miR-21 reporter: -11%; IL-2 act: 0; uPA generation: 8%; p53 reactivation: 0%; Epigenetic reg: 0%

The last 4 compounds of the section above come first, to join the parts.
What do the screens show for `COCc1c(C(=O)N2CCN(c3ccccc3O)CC2)cnn1-c1nccc(-c2cccs2)n1`?
PINK1 modulator: 1%

How did CC(C)(C)Nc1nc2cc([N+](=O)[O-])ccc2o1 do in these assays?
PINK1 modulator: 6%; miR-21 reporter: -12%; IL-2 act: 0; uPA generation: 15%; p53 reactivation: 8%; Epigenetic reg: -1%

How did CC(C)(C)c1nc2cc(Cl)c([N+](=O)[O-])cc2o1 do in these assays?
PINK1 modulator: 14µM*; miR-21 reporter: -1%; IL-2 act: 0; uPA generation: 0%; p53 reactivation: 3%; Epigenetic reg: -5%

What do the screens show for `CCOC(=O)c1c(-c2ccccc2)csc1NC(=O)/C(C#N)=C/c1ccc(OC)c(OC)c1`?
PINK1 modulator: 10%; miR-21 reporter: -11%; IL-2 act: 0; uPA generation: 8%; p53 reactivation: 0%; Epigenetic reg: 0%

What do the screens show for `CCOC(=O)c1c(-c2ccccc2)csc1NC(=O)/C(C#N)=C/c1ccc(O)c(OC)c1`?
PINK1 modulator: 15%; miR-21 reporter: -2%; IL-2 act: 58*; uPA generation: 2%; p53 reactivation: 2%; Epigenetic reg: 25µM*

What do the screens show for `Oc1ccc(N=Nc2ccccc2)o1`?
PINK1 modulator: -3%; miR-21 reporter: 28%; IL-2 act: -4; uPA generation: 6.3µM*; p53 reactivation: inconclusive

How did O=c1ccc(N=Nc2ccccc2)ccc1O do in these assays?
PINK1 modulator: inconclusive; miR-21 reporter: 8%; IL-2 act: 1; uPA generation: -4%; p53 reactivation: inconclusive; Epigenetic reg: 8%

What do the screens show for `CNc1cc(C(=O)O)nc2ccccc12`?
PINK1 modulator: 7%

What do the screens show for `CCC1(C2CCN(C(=O)c3coc4c3C(=O)CCC4)CC2)NC(=O)N(CCc2scnc2C)C1=O` (stereo not drawn)?
PINK1 modulator: 1%

How did O=C1c2cccc3c([N+](=O)[O-])ccc(c23)C(=O)N1c1ccc(Cl)cn1 do in these assays?
PINK1 modulator: -1%[38.3 µM]; miR-21 reporter: 12%; IL-2 act: -4; p53 reactivation: -35%; Epigenetic reg: 14µM*

Results for O=C1c2cccc3c([N+](=O)[O-])ccc(c23)C(=O)N1c1ccccn1 ?
PINK1 modulator: -2%; miR-21 reporter: inconclusive; IL-2 act: 0; uPA generation: -11%; p53 reactivation: -11%; Epigenetic reg: 1%

Results for CCOC(=O)N1CCN(C(=O)c2ccc(-c3ccccc3OC)nc2N2CCC(N3CCCC(CO)C3)CC2)CC1 (stereo not drawn) ?
PINK1 modulator: 0%

How did Cc1ccccc1N(C)S(=O)(=O)c1nnc(NC(=O)C(C)C)s1 do in these assays?
PINK1 modulator: 1%; miR-21 reporter: -2%; Epigenetic reg: 22µM*

Results for Cc1ccccc1N(C)S(=O)(=O)c1nnc(NC(=O)c2ccccc2F)s1 ?
PINK1 modulator: 0%; miR-21 reporter: -7%; IL-2 act: -3; uPA generation: 4%; p53 reactivation: 22%; Epigenetic reg: 0%
